Ab-14 heavy chain CDR variants: yeast mating affinities

Antigen: PDVDLGDISGINAS, a 14-residue peptide of the SARS-CoV-2 spike HR2 region.

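The parent was found by panning a naive human phage display library on the peptide. These sequences belong to a second round, designed from the earlier measurements on random variants of the parent. Several design methods are mixed in this list. In AlphaSeq, yeast of one mating type display the scFv and yeast of the other type display the target. Pairs that bind mate more often; barcode pairs of the diploids are counted by sequencing. Scores were corrected for input abundance and mapped to Kd with protein pairs of known affinity run in the same pool. The assay was run in six technical replicates.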

Ab-14 is the parent antibody, in scFv form: VH, then three GGGGS repeats, then VL. The light chain is unchanged in all variants.
VH: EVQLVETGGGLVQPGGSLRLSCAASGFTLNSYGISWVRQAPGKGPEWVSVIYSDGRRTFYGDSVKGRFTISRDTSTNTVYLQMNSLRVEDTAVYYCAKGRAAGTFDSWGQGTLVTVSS
VL: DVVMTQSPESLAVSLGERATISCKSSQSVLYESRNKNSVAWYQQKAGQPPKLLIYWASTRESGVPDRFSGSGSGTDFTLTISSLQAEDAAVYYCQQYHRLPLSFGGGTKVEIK

Variants are written as CDR1, CDR2 and CDR3 of the heavy chain (limits as in the source). Parent: GFTLNSYGIS, VIYSDGRRTFYGDSVK, GRAAGTFDS. Variants here have more than six changes. Each Kd is an estimate from the mating assay, the geometric mean of the replicates in which the pair was seen; lower is stronger. An entry "nd" has no value in the source: the pair was not observed among the diploids in any replicate. This suggests poor binding but is not conclusive.

For GFDLNEYGIS / VIYADGLRKSYANSVK / NGLRSFFFV, the assay gave nd (0 of 6 replicates).
For GFEIQEYGIS / VIYADGRRTAYAENVK / GTMGGTLST, the assay gave 89 nM (5 of 6 replicates).
For GFNLNEYGIS / VIYADGVRTFYSDSVK / GEAAGTFDV, the assay gave 740 pM (6 of 6 replicates).
For GFSLDEYGIS / VIYADGRRTFYADSVK / GNIAGTFDS, the assay gave 200 pM (6 of 6 replicates).
For GFKLDEYGIS / VIYADGCRTAYVDSVK / GKTTFSKFV, the assay gave nd (0 of 6 replicates).
For GFDLNEYGIS / VIYADGRRTQYIDSVK / GEVAGTFDA, the assay gave 780 pM (5 of 6 replicates).
For GFDLNEYGIS / VIYADGKRTAYADSVK / GGVAGTFDL, the assay gave 260 pM (6 of 6 replicates).
For GFDLNEYGIS / VIYADGQRTFYHDNVK / GQLNVVVNA, the assay gave nd (0 of 6 replicates).
For GFELSEYGIS / VIYADGVRVEYTQSVK / GQLGGSFNV, the assay gave nd (0 of 6 replicates).
For GFDLNEYGIS / VIYADGVRTAYVDSVK / GEVAGTFDV, the assay gave 520 pM (6 of 6 replicates).
For GFDLDEYGVS / VIYADGERTFYADKVK / GTHGGTRDI, the assay gave nd (0 of 6 replicates).
For GFDLNEYGIS / VIYADGVRTAYADNVK / GNQAGTFDV, the assay gave 410 pM (6 of 6 replicates).
For GSDLNEYGIS / VIYADGHRVSYAENVK / GINMAGIFI, the assay gave nd (0 of 6 replicates).
For GFDLDEYGIS / VIYADGMRKAYADSVK / GENAGTFDI, the assay gave 1.2 nM (6 of 6 replicates).
For GKDLQEYGVS / VIYADGMRKSYADSVK / GNHAGYLDK, the assay gave nd (0 of 6 replicates).
For GFDLNEYGIS / VIYADGIRTFYADSVK / GNAAGTFDA, the assay gave 580 pM (6 of 6 replicates).
For GYDLDDYGIS / VIYADGKRTSYAESVK / GNNGGSFMN, the assay gave nd (0 of 6 replicates).
For GFDLNEYGVS / VIYADGHRVQYTEDVK / GGNSGAVDN, the assay gave 72 nM (6 of 6 replicates).
For GFDLNEYGIS / VIYADGLRTFYADSVK / GNVAGTFDV, the assay gave 140 pM (6 of 6 replicates).
For GFSLDEYGIS / VIYADGVRRSYSDNVK / GFNGEVSIV, the assay gave nd (0 of 6 replicates).
For GFHLNEFGIS / VIYADGLRMHYANSVK / GEMAGTFTT, the assay gave 37 nM (4 of 6 replicates).
For GYDLDDYGIS / VIYADGKRTSYAESVK / GLIGGSLSN, the assay gave nd (0 of 6 replicates).
For GFDLNEYGIS / VIYADGSRTAYSDSVK / GGNAGTFDV, the assay gave 270 pM (6 of 6 replicates).
For GFDLNEYGIS / VIYADGRRTAYTDSVK / GHNAGTFKL, the assay gave 3.3 nM (6 of 6 replicates).
For GQDLNEYGIS / VIYADGLRTAYSENVK / GNISQFDDG, the assay gave nd (0 of 6 replicates).
For GFDLDEYGIS / VIYADGMRTSYSDSVK / GENAGTFDV, the assay gave 20 nM (6 of 6 replicates).
For GFDLNEYGIS / VIYADGVRQAYADDVK / GNQAGTFDV, the assay gave 1.2 nM (6 of 6 replicates).
For GFDLNDYGIS / VIYADGKRTAYIDSVK / GEVAGTFDS, the assay gave 220 pM (6 of 6 replicates).
For GFDLNEYGIS / VIYADGMRTAYANDVK / GENAGTFDV, the assay gave 640 pM (6 of 6 replicates).
For GFNLNEYGIS / VIYADGRRTFYADSVK / GQLAGTFDM, the assay gave nd (0 of 6 replicates).
For GMGLDSYGIS / VIYADGMRTSYDNSVK / GAWAGTFDE, the assay gave 81 nM (2 of 6 replicates).
For KFDLEAYGIS / VIYADGVRTAYVDKVK / GQTGGMFDM, the assay gave 320 nM (5 of 6 replicates).
For GFDLNEYGIS / VIYADGRRTVYADSVK / GNVAGTFDI, the assay gave 360 pM (6 of 6 replicates).
For GFQLDEYGIS / VIYADGLRTAYKDTVK / GSDTGLFMF, the assay gave nd (0 of 6 replicates).
For GFDINEYGIS / VIYADGRRTFYTDSVK / GGNAGTFDT, the assay gave nd (0 of 6 replicates).
For GFNLNEYGIS / VIYADGMRTFYTDSVK / GETAGTFDI, the assay gave 440 pM (6 of 6 replicates).
For GFDLNEYGIS / VIYADGVRTAYADNVK / GQVAGTFDV, the assay gave 410 pM (6 of 6 replicates).
For GFNIDEYGIS / VIYADGSRAVYTESVK / GHNGMRLVE, the assay gave nd (0 of 6 replicates).
For GMDLNEYGIS / VIYADGRRAATINQVK / GSNSDTFSL, the assay gave nd (0 of 6 replicates).
For GFDIDEYGVS / VIYADGFREAYAESVK / GLIQTGFTV, the assay gave nd (0 of 6 replicates).
For GFDLNEYGIS / VIYADGRRTQYIDSVK / GNEAGTFDL, the assay gave 720 pM (6 of 6 replicates).
For GFDIEDYGIS / VIYADGQRTVEASNFK / GKIAGTFNL, the assay gave 800 pM (6 of 6 replicates).
For GFDIEEYGIS / VIYADGVRAMYKSNFK / GKIAGTGLT, the assay gave 11 nM (1 of 6 replicates).
For GFDLEEYGIS / VIYADGMRQYAQDNVK / GLISGTGKT, the assay gave 62 nM (1 of 6 replicates).
For GFDLNEYGIS / VIYADGVRTFYVDSVK / GQVAGTFDV, the assay gave 450 pM (6 of 6 replicates).
For GFDLEDYGIS / VIYADGKRTFYADSVK / GNVAGTFDS, the assay gave 200 pM (6 of 6 replicates).
For GFDLNEYGIS / VIYADGRRTFYSDSVK / GEIAGTFIQ, the assay gave 430 pM (6 of 6 replicates).
For GFDLNEYGIS / VIYADGVRTAYADSVK / GDNAGTFDV, the assay gave 640 pM (6 of 6 replicates).

The last 3 entries again:

{"CDR-H1": "GFDLEDYGIS", "CDR-H2": "VIYADGKRTFYADSVK", "CDR-H3": "GNVAGTFDS", "Kd": "200 pM", "seen in": "6/6"}
{"CDR-H1": "GFDLNEYGIS", "CDR-H2": "VIYADGRRTFYSDSVK", "CDR-H3": "GEIAGTFIQ", "Kd": "430 pM", "seen in": "6/6"}
{"CDR-H1": "GFDLNEYGIS", "CDR-H2": "VIYADGVRTAYADSVK", "CDR-H3": "GDNAGTFDV", "Kd": "640 pM", "seen in": "6/6"}

In the paper, a design with two or fewer of six values counts as a poor binder. The range of this assay differs from that of the first round, and the authors advise against merging the two. Background: pairings of all heavy chain designs with three empty control strains gave a value in 1% of cases (median 120 nM, 5th percentile 7.0 nM). Values in that range, when seen in few replicates, are hard to tell from nonspecific mating. Of ten entries with the parent sequence, four were seen in most replicates (averages 2.2 nM to 240 nM), three in one and three in none, so single entries are noisy.

From the AlphaSeq antibody data of Li et al. 2023 (doi:10.1038/s41467-023-39022-2), copy in the FLAb collection.